# Literature values as cited in patent US4916151A, “Method of treating parkinson's syndrome” (Merrell Dow Pharmaceuticals Inc., priority 1989, dated 1990).
# System: MAO
# Settings: literature; selectivity lost as dosage is increased
compound,measurement,value
C#CCN(C)CCCOc1ccc(Cl)cc1Cl [clorgyline],preferential inhibition of MAO-A or MAO-B,MAO-A is preferentially inhibited
